Patent US20240247042A1, “GLUCAGON LIKE PEPTIDE COMPOUNDS” (Novartis AG, priority 2021, published 2024)

What was measured:
[1] = Cynomolgous monkey PK (obese monkeys); conditions: single s.c., 0.004 mg/kg
Mouse PK (DIO mice) = conditions: s.c.

semaglutide
Cmax [1]: 7.11 ± 2.2 nM
T1/2 [1]: 67.2 ± 4.8 h
Tmax [1]: 24 ± 0 h
T1/2 (Mouse PK (DIO mice)): 8.4 ± 2.2 h
Tmax (Mouse PK (DIO mice)): 5.04 ± 1.7 h
